Binding of CDR-mutated scFvs to a peptide of the spike HR2 region

Source: Li et al. 2023 (doi:10.1038/s41467-023-39022-2), MIT Lincoln Laboratory and A-Alpha Bio; data file from the FLAb repository.

Binding partner: SARS-CoV-2 spike HR2 peptide, sequence PDVDLGDISGINAS.

Parent scFv Ab-14: VH joined to VL by a (GGGGS)3 linker. Changes lie in the light chain CDRs alone.
VH: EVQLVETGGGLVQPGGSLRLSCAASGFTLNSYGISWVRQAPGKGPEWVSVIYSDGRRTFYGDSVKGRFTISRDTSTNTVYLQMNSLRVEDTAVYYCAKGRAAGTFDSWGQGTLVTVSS
VL: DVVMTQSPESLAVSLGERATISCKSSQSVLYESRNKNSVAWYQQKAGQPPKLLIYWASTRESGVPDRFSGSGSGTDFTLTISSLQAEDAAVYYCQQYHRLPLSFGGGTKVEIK

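The starting antibody came from a phage panning campaign against this peptide. The variants were designed computationally from a first round of random CDR variants and then made and measured. Group labels follow the data file (En: ensemble of fine-tuned language models; GP: Gaussian process model; HC: hill climbing; Gen: genetic algorithm; Gibbs: Gibbs sampling; a sequence that several methods proposed may carry one label only). In AlphaSeq, yeast of one mating type display the scFv and yeast of the other type display the target. The frequency of each diploid, read from paired DNA barcodes, reflects how well the two displayed proteins bind. A regression on co-assayed BCL2-family reference pairs converts the normalised counts of each replicate to an apparent Kd. The assay was run in six technical replicates.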

The parent's light chain CDRs are KSSQSVLYESRNKNSVA, WASTRES, QQYHRLPLS; each variant's own CDRs replace them letter for letter. This list holds designs with more than six substitutions. Values are log10 of the apparent Kd in nM; lower means stronger binding. A mean of the replicates is given; it leaves out those without a signal. An entry "nd" has no value in the source: the pair was not observed among the diploids in any replicate. This suggests poor binding but is not conclusive. Values of this round are not directly comparable with the first-round values of the same sequences. Empty control strains, which show no peptide, gave a signal in 4% of pairings with all light chain designs; the median was 2.64 and 95% of these signals were weaker than 1.59. No background was subtracted. The control count says in how many pairings with the empty strains this scFv gave a signal. In the paper, a design with two or fewer of six values counts as a poor binder.

The variant ILSQMLLTAGNKHSSVA | QANNREQ | QQYHRLPLS [En_HC] showed 0.21 (6 of 6 replicates; controls 0 of 18). The variant KLSMITGHMHMSKNNVA | EMVTRAN | QQYDRLPLA [En_Gen] showed 0.26 (6 of 6 replicates; controls 3 of 18). With TFDQMGEQKGMNTNSVA | AGNLVRI | QQYSRLPFS [En_Gibbs] the result was 0.43 (6 of 6 replicates; controls 0 of 18). The variant MLSEVLHMLGVKKNSIA | DLVLRAN | QQYARLPLM [En_Gen] gave 2.42 (1 of 6 replicates; controls 0 of 18). For TLSQMSGVESVKRNNVA | ENSTREK | QQYDRLPLT [En_Gen], the assay gave 3.02 (5 of 6 replicates; controls 0 of 18).

The variant HLSDTVMQGLYYRNSVA | QESTRAD | QQYHRLPLS [En_HC] gave 0.63 (6 of 6 replicates; controls 0 of 18). The variant TISQVMNTLTRHGNNVA | DLQEREV | QQYFRLPLS [En_Gen] showed 0.67 (6 of 6 replicates; controls 1 of 18). The variant KVMQSQLGEMRNVNSVA | NASTRES | QQYHRLPLS [GP_Gibbs] gave 0.03 (6 of 6 replicates; controls 4 of 18). The variant IVSQLMMWGLHAKNSIA | EAEMRTN | QQYDRLPLF [En_Gen] gave nd (0 of 6 replicates; controls 0 of 18). With TIGPMLMTESRNKNSVA | GMQTRER | QQYHRLPLS [En_HC] the result was nd (0 of 6 replicates; controls 0 of 18).

For KFEQQWLYESRNVNSVA | NASTRSQ | QQYHRLPLS [GP_Gibbs], the assay gave -0.31 (6 of 6 replicates; controls 1 of 18). The variant KISQMVRVGSTKGNSIA | EEATRAD | QQYHRLPLS [En_Gen] gave 0.73 (6 of 6 replicates; controls 1 of 18). The variant TISQVMHYESRNKNSVA | QTSTREE | QDYDRLPLS [En_HC] gave 1.56 (5 of 6 replicates; controls 0 of 18). The variant RLTEHESEKKAADASVA | DANTRND | QQYHRLPLF [En_Gibbs] showed 1.44 (6 of 6 replicates; controls 3 of 18). The variant KLMQSWLGQSLNKNSVA | NASQREH | QQYHRLPLS [GP_Gibbs] showed 0.09 (6 of 6 replicates; controls 2 of 18).

With NVGQHMDGESRNKNSVA | HQSTRED | QHYHRLPLS [En_HC] the result was nd (0 of 6 replicates; controls 0 of 18). With MVNGIMDHLSKQKNNVA | ETETRNS | QQYDRLPLS [En_Gen] the result was 0.70 (6 of 6 replicates; controls 0 of 18). With KLTAAQNDYGQNRSAIA | EEVNSLQ | QQYHHLPLS [En_Gibbs] the result was 3.01 (2 of 6 replicates; controls 3 of 18). With NISELMYYQSRNKNNIA | EMSTRER | QHYHRLPLS [En_HC] the result was 0.12 (6 of 6 replicates; controls 3 of 18). With HVSMLTLQGMRHTNSVA | QMTTRVN | QQYDRLPLT [En_Gen] the result was 1.50 (6 of 6 replicates; controls 0 of 18).

For HMSMLTMMGMRQRNSVA | QMTTREN | QQYDRLPLM [En_Gen], the assay gave 0.75 (6 of 6 replicates; controls 0 of 18). The variant IVSQLMLWGYHAKNSIA | EAEQRLN | QQYDRLPLF [En_Gen] showed 1.85 (1 of 6 replicates; controls 0 of 18). The variant KLEFSVLGESRNKNAVA | SASQREQ | QQYHRLPLS [GP_Gibbs] showed -0.31 (6 of 6 replicates; controls 0 of 18). The variant KLTNVTGTEKVMGNNVA | EMETRER | QQYNRLPLA [En_Gen] showed 1.45 (6 of 6 replicates; controls 0 of 18). The variant TLSESMDMTSRNVNSVA | DLTTRGN | QQYHRLPLS [En_HC] showed 0.89 (4 of 6 replicates; controls 1 of 18).

For ILSQMLLTAGNKHSSVA | QANNRED | QQYHRLPLS [En_HC], the assay gave 1.37 (6 of 6 replicates; controls 1 of 18). The variant NMGGTKEMQSNEINNIA | EMNERFA | QQYFQLPLS [En_Gibbs] showed 0.70 (6 of 6 replicates; controls 0 of 18). The variant KLSFLSEMEHVNRNSVA | ELVTRMS | QQYNRLPLS [En_Gen] showed 0.35 (6 of 6 replicates; controls 2 of 18). For KLQQGMDYESRNDNSVA | HASTRES | QQYHRLPLF [GP_Gibbs], the assay gave 0.37 (6 of 6 replicates; controls 0 of 18). For ALSHSMDMTSRNVNSVA | DLTTREN | QQYHRLPLS [En_HC], the assay gave 0.10 (6 of 6 replicates; controls 2 of 18).

The variant MISDLTMYGSLNKNSVA | DLSTRGS | QQYHRLPLS [En_HC] gave 0.23 (6 of 6 replicates; controls 0 of 18). For HITYGMQVMGRHSKSIA | QAEERAK | QQYDRLPLT [En_Gen], the assay gave 1.20 (6 of 6 replicates; controls 1 of 18). For TISQMTSLFSQSINSVA | EVSMREE | QQYDRLPLM [En_Gen], the assay gave 0.81 (6 of 6 replicates; controls 1 of 18). With KVSMLHWYESRNKNSVA | EASTREQ | QQYHRLPLS [GP_Gibbs] the result was 0.47 (6 of 6 replicates; controls 0 of 18).

The last 3 entries again:

CDR-L1,CDR-L2,CDR-L3,group,mean log10 Kd (nM),detected,control signals
HITYGMQVMGRHSKSIA,QAEERAK,QQYDRLPLT,En_Gen,1.20,6/6,1/18
TISQMTSLFSQSINSVA,EVSMREE,QQYDRLPLM,En_Gen,0.81,6/6,1/18
KVSMLHWYESRNKNSVA,EASTREQ,QQYHRLPLS,GP_Gibbs,0.47,6/6,0/18